Results from ChEMBL document CHEMBL4831477, “Structure-Enabled Discovery of Novel Macrocyclic Inhibitors Targeting Glutaminase 1 Allosteric Binding Site” (J Med Chem, 2021).
The source made the active and inactive calls.

How the values were obtained:
[1] = molecular target: T1, Glutaminase kidney isoform, mitochondrial (Homo sapiens) (UniProt O94925); assay: Noncompetitive inhibition of human GLS1 expressed in Escherichia coli strain BL21 (DE3) assessed as decrease in Vmax using varying concentrations of glutamine as substrate by Michaelis-Menten plot analysis
T1 sequence (whole entry): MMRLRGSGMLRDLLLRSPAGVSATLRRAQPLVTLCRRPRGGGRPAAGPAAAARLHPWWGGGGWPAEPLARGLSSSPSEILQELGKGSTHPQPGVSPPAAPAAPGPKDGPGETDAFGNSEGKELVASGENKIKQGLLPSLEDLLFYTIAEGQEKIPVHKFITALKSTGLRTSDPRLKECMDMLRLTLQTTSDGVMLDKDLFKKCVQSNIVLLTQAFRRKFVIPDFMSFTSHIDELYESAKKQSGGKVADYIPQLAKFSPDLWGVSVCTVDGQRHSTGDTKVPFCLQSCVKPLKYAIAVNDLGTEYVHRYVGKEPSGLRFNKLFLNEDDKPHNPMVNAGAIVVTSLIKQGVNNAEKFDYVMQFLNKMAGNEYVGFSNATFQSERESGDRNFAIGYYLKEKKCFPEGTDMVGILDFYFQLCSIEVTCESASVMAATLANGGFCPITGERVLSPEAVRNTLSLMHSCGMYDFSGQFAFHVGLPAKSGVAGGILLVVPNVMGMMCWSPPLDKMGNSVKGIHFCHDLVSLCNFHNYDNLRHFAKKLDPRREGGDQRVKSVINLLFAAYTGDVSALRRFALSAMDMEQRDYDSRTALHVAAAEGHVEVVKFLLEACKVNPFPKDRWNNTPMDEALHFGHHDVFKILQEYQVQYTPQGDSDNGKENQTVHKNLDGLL

[2] = molecular target: T1, Glutaminase kidney isoform, mitochondrial (Homo sapiens); assay: Inhibition of GLS1 in human HCT-116 cells assessed as reduction in ATP production after 12 hrs; assay type: cell-based
[3] = molecular target: T1, Glutaminase kidney isoform, mitochondrial (Homo sapiens); assay: Inhibition of GLS1 in human HCT-116 cells assessed as decrease in basal oxygen consumption rate at 1 uM after 12 hrs by seahorse XFe analyser based assay; assay type: cell-based
[4] = molecular target: T1, Glutaminase kidney isoform, mitochondrial (Homo sapiens); assay: Inhibition of GLS1 in human HCT-116 cells assessed as decrease in maximal oxygen consumption rate at 1 uM after 12 hrs by seahorse XFe analyser based assay; assay type: cell-based
[5] = molecular target: T1, Glutaminase kidney isoform, mitochondrial (Homo sapiens); assay: Inhibition of GLS1 in human HCT-116 cells assessed as decrease in extracellular acidification rate at 1 uM after 12 hrs by seahorse XFe analyser based assay; assay type: cell-based

Measured: inhibition

O=C1Cc2cccc(c2)OCC/C=C/CCOc2cccc(c2)CC(=O)Nc2nnc(s2)CCCCc2ccc(nn2)N1
active: [1] | [2] | [3] | [4] | [5]
